These are literature values, as cited in patent US20250312300A1, “BRIDGED BICYCLIC CARBOXYLIC ACIDS FOR TREATING OSTEOSARCOMA AND EWING SARCOMA” (UEA ENTERPRISES LIMITED, priority 2022, published 2025).

The subject of this series is osteosarcoma. The settings on record: HER2-positive vs HER2-negative groups, PMID: 22665540; cited from earlier work.

For trastuzumab, the “patient outcome / therapeutic benefit” value is given as “therapeutic benefit remains uncertain”.
